The structures appear in SMILES notation. The list shows a part of the results, in another mix than the full data. The source made the active and inactive calls. Cut-off read from the data, not from the text of the source: active = inhibition above about 40%; inactive = the rest.

Protein sequences, listed by entry. Tags and fused reporters are not part of them.
UniProt Q9Y4P1, whole entry: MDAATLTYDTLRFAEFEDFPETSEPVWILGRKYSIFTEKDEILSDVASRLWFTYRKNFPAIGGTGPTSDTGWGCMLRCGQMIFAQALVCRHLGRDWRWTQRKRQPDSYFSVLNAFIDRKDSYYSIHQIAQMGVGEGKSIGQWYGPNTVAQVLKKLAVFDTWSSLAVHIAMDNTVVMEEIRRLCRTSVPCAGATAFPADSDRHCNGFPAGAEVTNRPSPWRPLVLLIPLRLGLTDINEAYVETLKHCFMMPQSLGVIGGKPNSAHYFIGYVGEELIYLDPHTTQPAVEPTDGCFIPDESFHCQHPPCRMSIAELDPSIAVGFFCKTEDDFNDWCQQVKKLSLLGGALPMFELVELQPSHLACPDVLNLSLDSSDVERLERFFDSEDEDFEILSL

The experiment deals with Cysteine protease ATG4B (Homo sapiens) (UniProt Q9Y4P1). As to the kind of experiment: ATG4B protease inhibitors, primary screen, biochemical, fluorescence, uHTS (AID 504462). As to conditions: ATG4B cleavage of LC3-PLA2, NBD-HPC fluorescence, 1 h; at 8.33 µM; active compounds read high.
Turning to `CCC(=O)N(c1ccccc1)C1(COC)CCN(CCc2cccs2)CC1`, the inhibition is inactive: -7.62%.
For `CCC(=O)N(c1ccccc1)C1(COC)CCN(CCn2nnn(CC)c2=O)CC1`, the inhibition was inactive: -4.44%.

These data come from PubChem BioAssay AID504462 (Sanford-Burnham Center for Chemical Genomics, 2011).
